Consider 1 compound from article PMC8717895 (Neuro-oncology Advances, 2021).

The format of data set [1] is in vivo, human. The note with it: stratum A.
Data set [2] is described as follows: Serum pharmacokinetics, stratum A. Type of data set: in vivo, human.

Where two headings read alike, the source gives them in different places.

Regarding `CC1(COc2ccc3c(c2)ncn3-c2ccc3cccc(N4CCC(N)CC4)c3n2)COC1` [crenolanib], the Fatigue/lethargy in data set [1] (Level 1 (100 mg/m^2), Grade 1/2) is recorded as 0; in data set [1] (Level 1 (100 mg/m^2), Grade 3/4), 0; in data set [1] (Level 2 (130 mg/m^2), Grade 1/2), 0; in data set [1] (Level 2 (130 mg/m^2), Grade 3/4) it was 0; in data set [1] (Level 3 (170 mg/m^2), Grade 1/2), 3 (50%); in data set [1] (Level 3 (170 mg/m^2), Grade 3/4) it was 0. Moreover, the Fatigue/lethargy came out at 0 in data set [1] (Level 4 (220 mg/m^2), Grade 1/2) and 0 in data set [1] (Level 4 (220 mg/m^2), Grade 3/4). The CL/F in data set [2] (stratum A1 (whole tablets), 100 mg/m^2, D1, median (range)) is on record as 26.2 (14.3–49.7) L/h/m^2; in data set [2] (stratum A1 (whole tablets), 100 mg/m^2, D28, median (range)), 27.5 (17.6–59.9) L/h/m^2; in data set [2] (stratum A2 (crushed tablets), 100 mg/m^2, D1, median (range)), 32.9 (11.9–66.6) L/h/m^2; in data set [2] (stratum A2 (crushed tablets), 100 mg/m^2, D28, median (range)), 32.6 (14.4–68.0) L/h/m^2; in data set [2] (stratum A, 130 mg/m^2, D1, median (range)), 52.1 (20.6–111) L/h/m^2; in data set [2] (stratum A, 130 mg/m^2, D28, median (range)) it was 17.6 (13.9–59.3) L/h/m^2. In addition, the CL/F in data set [2] (stratum A, 170 mg/m^2, D1, median (range)) was 25.4 (15.0–62.8) L/h/m^2; in data set [2] (stratum A, 170 mg/m^2, D28, median (range)) it was 13.2 (6.4–27.5) L/h/m^2; in data set [2] (stratum A, 220 mg/m^2, D1, median (range)), 21.6 (7.9–98.4) L/h/m^2; in data set [2] (stratum A, 220 mg/m^2, D28, median (range)) it was 13.7 (4.3–60.4) L/h/m^2.
